We go through 1 molecule from patent US11773146B2, “Disruption of the WAVE3 protein complex for suppression of invasion and metastasis” (UNIVERSITY OF GEORGIA RESEARCH FOUNDATION, INC., priority 2015, dated 2023).

The structures appear in SMILES notation. Entries after “also recorded” stand apart in the source; their conditions may differ.

The assay has as its system MDA-MB-231 and Hs578T cells. Kind of assay: Cell proliferation with RAC1 inhibitor. The class given is cell-based. The conditions noted are these: range of 1-50 μM. The source says:
MDA-MB-231, Hs578T and T47D breast cancer cell lines were obtained directly from American Type Culture Collection (Rockville, Md.). MDA-MB-231 and T47D and have been verified using SNP-CGH (Teng Y, et al. Int J Cancer 2011 129:2825-2835) for characteristic cytogenetic changes. The ATCC Cell Authentication Testing service confirmed the identity of Hs578T using STR DNA fingerprinting analysis. Standard cell culture, transient transfections, RT-PCR, western blotting, immunoprecipitation (IP), flow cytometry, Biotin-Avidin pulldown, lentiviral transduction, cell proliferation and Transwell invasion assays were carried out as described previously (Teng Y, et al. Int J Cancer 2011 129:2825-2835; Teng Y, et al. J Biol Chem 2012 287:10051-10059; Teng Y, et al. Carcinogenesis 2013 34:1994-1999).

In the case of `CCN(CC)CCCC(C)Nc1nc(C)cc(Nc2ccc3nc(C)cc(N)c3c2)n1` (stereo not shown) [NSC23766], the cell proliferation result is recorded as “without affecting cell proliferation; also recorded: does not affect proliferation”.
